Assay results as given in US10537561B2 (Novartis AG, priority 2011, dated 2020).
pIC50: −log10 of the molar value.

Amino acid sequences for entries named in this document (tags omitted). Residues count along the entry.
UniProt P07333, 20-972 limits assumed: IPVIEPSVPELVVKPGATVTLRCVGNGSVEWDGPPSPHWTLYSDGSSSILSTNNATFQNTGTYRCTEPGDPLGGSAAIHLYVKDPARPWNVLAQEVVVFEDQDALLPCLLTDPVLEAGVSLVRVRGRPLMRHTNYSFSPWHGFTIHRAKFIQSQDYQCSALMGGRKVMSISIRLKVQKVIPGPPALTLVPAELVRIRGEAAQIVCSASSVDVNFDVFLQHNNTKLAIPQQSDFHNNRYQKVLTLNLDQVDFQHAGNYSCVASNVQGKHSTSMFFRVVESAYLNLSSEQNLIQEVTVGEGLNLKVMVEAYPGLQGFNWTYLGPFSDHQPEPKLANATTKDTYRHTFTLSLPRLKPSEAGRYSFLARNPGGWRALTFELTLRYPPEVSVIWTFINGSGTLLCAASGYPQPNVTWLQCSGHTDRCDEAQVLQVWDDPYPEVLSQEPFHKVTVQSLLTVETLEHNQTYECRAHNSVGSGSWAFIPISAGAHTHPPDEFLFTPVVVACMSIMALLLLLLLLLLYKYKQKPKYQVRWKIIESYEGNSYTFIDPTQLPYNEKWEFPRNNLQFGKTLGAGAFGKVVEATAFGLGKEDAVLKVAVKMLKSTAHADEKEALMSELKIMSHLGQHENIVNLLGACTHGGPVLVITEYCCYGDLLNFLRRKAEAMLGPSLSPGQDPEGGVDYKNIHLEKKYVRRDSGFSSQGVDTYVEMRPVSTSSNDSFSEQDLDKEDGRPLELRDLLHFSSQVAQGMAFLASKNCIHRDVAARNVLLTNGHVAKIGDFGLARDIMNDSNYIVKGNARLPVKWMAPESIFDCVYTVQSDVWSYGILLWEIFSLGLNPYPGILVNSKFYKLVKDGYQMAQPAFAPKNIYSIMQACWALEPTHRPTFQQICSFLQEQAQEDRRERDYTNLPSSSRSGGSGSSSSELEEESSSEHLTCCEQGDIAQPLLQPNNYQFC
UniProt P09619, 33-1106 limits assumed: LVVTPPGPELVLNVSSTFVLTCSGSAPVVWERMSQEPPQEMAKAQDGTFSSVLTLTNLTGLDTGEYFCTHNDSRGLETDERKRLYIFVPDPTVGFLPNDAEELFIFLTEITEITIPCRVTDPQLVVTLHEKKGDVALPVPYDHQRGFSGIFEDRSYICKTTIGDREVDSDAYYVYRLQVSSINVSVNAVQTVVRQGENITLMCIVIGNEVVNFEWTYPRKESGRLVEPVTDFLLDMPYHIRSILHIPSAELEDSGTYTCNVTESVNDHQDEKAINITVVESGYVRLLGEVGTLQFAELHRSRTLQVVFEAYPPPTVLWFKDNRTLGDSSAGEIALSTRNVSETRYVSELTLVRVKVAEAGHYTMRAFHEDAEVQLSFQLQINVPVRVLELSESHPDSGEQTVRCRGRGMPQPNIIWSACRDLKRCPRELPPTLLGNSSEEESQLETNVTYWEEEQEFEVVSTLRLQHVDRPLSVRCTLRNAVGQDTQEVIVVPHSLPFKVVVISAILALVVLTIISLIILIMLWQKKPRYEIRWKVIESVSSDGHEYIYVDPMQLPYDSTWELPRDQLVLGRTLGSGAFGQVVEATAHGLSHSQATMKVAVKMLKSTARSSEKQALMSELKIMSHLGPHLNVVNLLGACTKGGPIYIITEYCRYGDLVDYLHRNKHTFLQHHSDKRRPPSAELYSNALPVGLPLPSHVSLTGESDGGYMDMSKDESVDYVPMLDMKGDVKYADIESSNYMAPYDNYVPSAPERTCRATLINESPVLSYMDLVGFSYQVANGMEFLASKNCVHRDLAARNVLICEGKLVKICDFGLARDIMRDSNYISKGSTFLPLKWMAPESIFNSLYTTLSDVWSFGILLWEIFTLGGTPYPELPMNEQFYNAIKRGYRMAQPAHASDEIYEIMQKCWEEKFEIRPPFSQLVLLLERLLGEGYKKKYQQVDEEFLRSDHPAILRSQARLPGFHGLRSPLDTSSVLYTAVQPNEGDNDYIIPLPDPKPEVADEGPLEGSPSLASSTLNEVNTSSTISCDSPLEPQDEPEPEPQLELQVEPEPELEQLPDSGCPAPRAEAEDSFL

What was measured:
[1] = target: CSF-1R (Homo sapiens, UniProt P07333); test: CSF-1R inhibition, biochemical assay; conditions: read-out: CSF-1R IC-50
[2] = target: PDGFR-β (Homo sapiens, UniProt P09619); test: PDGFR-β inhibition; assay type: biochemical; conditions: read-out: PDGFR-β IC-50

pIC50 [1]: 8.70
pIC50 [2]: 6.20
Compound: Cn1cc(-c2cc(Oc3ccc4nc(N[C@H]5CCCC[C@H]5O)sc4c3)ccn2)cn1
